The record followed here is US9969687B2, “Compounds useful as CCR9 modulators” (Norgine B.V., priority 2013, dated 2018).

Sequences of proteins named here, by UniProt entry; tags and fusion partners are left off.
UniProt P51686, whole entry: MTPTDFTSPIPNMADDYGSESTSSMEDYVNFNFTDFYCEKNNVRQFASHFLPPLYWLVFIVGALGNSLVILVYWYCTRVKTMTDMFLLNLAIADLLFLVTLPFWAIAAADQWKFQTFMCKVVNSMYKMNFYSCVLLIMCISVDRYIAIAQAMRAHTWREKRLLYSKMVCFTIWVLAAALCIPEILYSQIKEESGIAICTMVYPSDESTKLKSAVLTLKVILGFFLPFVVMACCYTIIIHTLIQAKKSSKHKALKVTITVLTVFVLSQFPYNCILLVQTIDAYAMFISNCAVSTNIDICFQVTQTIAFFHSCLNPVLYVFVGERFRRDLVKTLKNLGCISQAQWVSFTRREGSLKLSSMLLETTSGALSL

A word on the Ki: it is a measure of affinity in units of concentration, obtained from inhibition or displacement.

SMILES strings stand for the structures.

The target in this test is CCR9 (Homo sapiens (Human), UniProt P51686). The experiment in a line: FLIPR calcium flux assay using MOLT4 cells, TECK stimulation. To be noted: MOLT4 cells (human T-cell line). The procedure: Biological Activity: FLIPR Assay Using MOLT4 Cells
A calcium flux assay was used to determine the ability of the compounds to interfere with the binding between CCR9 and its chemokine ligand (TECK) in MOLT4 cells (a human T-cell line). MOLT4 cells were seeded (100,000 cells/well) in corning cell culture plates (Cat #3603) in assay buffer (1×HBSS, 20 mM HEPES) containing 2.5 mM Probenecid. The plate was centrifuged at 1200 rpm for 3 minutes and incubated at 37° C./5% CO2 for 2 hours. A 0.3× Fluo-4 NW calcium dye was prepared in assay buffer containing 5 mM Probenecid and stored in the dark. Each well was loaded with 25 μl of 0.3× Fluo-4 NW calcium dye and incubated at 37° C./5% CO2 for 60 minutes and then at room temperature for 30 minutes. A half-log serially diluted concentration response curve was prepared at a 4× concentration for each (10 μM-0.1 nM final assay concentration) and 25 μL of the compound then transferred to the cells (100 μL final volume) for 60 minutes prior to stimulation (30 minutes at 37° C./5% CO2 and 30 minutes at room temperature). TECK was diluted to 5× its EC50 in assay buffer (containing 0.1% [w/v] bovine serum albumin [BSA]) and 25 μL dispensed through the FLIPR instrument to stimulate the cells (125 μL final volume). The increased in intracellular calcium levels was measured with the FLIPR instrument. The potency of the compound as CCR9 antagonist was calculated as an IC50 using GraphPad Prism software (variable slope four parameter). The Ki of the compound was determined from the IC50 values using the following equation. IC50/1+(Agonist (TECK) conc. used in assay/EC50 of agonist (TECK) generated on day of experiment) Ki calculation: […]
(In general: A change in cytosolic calcium serves as a functional read-out for many receptors and channels.)

As for `COc1c[n+]([O-])c(N2C(=O)c3c(Cl)ccc(NS(=O)(=O)c4ccc(C(C)(C)C)cc4)c3C2=O)cc1C`, the Ki amounted to 76 nM.
In the case of `CC(C)(C)c1ccc(S(=O)(=O)Nc2ccc(Cl)c3c2C(=O)N(Cc2cc(C#N)c[n+]([O-])c2)C3=O)cc1`, the Ki was found to be 76 nM.
With `Cc1ccc(CN2C(=O)c3c(Cl)ccc(NS(=O)(=O)c4ccc(C(C)(C)C)cc4)c3C2=O)c[n+]1[O-]`, the Ki turned out to be 212 nM.
